Laboratory results taken from US20140100156A1 (SANOFI, priority 2012, published 2014).

Amino acid sequences for entries named in this document (tags omitted). Residues count along the entry.
UniProt P47871, 26-477: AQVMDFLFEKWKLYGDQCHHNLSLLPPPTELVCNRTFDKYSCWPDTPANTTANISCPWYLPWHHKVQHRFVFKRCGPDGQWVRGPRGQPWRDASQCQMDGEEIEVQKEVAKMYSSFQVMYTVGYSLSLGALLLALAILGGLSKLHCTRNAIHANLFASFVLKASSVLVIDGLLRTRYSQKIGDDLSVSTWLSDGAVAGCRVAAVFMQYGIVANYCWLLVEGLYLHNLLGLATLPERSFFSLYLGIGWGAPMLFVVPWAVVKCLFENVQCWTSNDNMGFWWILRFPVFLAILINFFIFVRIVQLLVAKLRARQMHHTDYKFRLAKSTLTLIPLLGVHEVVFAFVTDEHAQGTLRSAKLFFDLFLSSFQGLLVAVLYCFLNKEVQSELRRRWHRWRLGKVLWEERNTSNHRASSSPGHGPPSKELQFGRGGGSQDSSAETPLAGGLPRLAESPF
UniProt P43220, 24-463: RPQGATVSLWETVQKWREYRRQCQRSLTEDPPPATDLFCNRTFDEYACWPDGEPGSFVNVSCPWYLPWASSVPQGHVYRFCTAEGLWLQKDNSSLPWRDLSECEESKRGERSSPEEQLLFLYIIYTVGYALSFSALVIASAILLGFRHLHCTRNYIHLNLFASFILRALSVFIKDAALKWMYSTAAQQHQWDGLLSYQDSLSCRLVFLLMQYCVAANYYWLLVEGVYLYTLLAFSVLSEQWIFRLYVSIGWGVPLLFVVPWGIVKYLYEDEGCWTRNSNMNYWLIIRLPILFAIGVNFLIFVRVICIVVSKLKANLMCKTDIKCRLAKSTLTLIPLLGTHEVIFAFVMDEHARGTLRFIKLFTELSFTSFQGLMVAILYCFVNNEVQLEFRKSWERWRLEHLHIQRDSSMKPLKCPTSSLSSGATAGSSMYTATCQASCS

Assays:
human glucagon receptor = biological target: T1, human glucagon receptor (Homo sapiens, UniProt P47871); assay: cAMP response (HTRF) of HEK-293 cells stably expressing human glucagon receptor; type: cell-based; conditions: Table 5; cAMP, HEK-293; read-out: EC50 hGlucagon-R
T1 construct: expressed in transfected cells; host or cells: HEK-293

human GLP-1 receptor = biological target: T2, human GLP-1 receptor (Homo sapiens, UniProt P43220); assay: cAMP response (HTRF) of HEK-293 cells stably expressing human GLP-1 receptor; type: cell-based; conditions: Table 5; cAMP, HEK-293; read-out: EC50 hGLP-1R
T2 construct: expressed in transfected cells; host or cells: HEK-293

Compound | EC50 (human glucagon receptor) [pM] | EC50 (human GLP-1 receptor) [pM]
CCCCCCCCCCCCCCCC(=O)N[C@@H](CCC(=O)NCCCC[C@H](NC(=O)[C@H](CCC(N)=O)NC(=O)[C@H](CCCCN)NC(=O)[C@H](CO)NC(=O)[C@H](CC(C)C)NC(=O)[C@H](CC(=O)O)NC(=O)[C@H](CO)NC(=O)[C@@H](NC(=O)[C@H](Cc1ccccc1)NC(=O)[C@@H](NC(=O)CNC(=O)[C@H](CCC(N)=O)NC(=O)[C@@H](CO)NC(=O)[C@@H](N)Cc1c[nH]cn1)[C@@H](C)O)[C@@H](C)O)C(=O)N[C@@H](CCC(=O)O)C(=O)N[C@@H](CO)C(=O)N[C@@H](CCCNC(=N)N)C(=O)N[C@@H](CCCNC(=N)N)C(=O)N[C@@H](C)C(=O)N[C@@H](CCC(N)=O)C(=O)N[C@@H](CC(=O)O)C(=O)N[C@@H](Cc1ccccc1)C(=O)N[C@H](C(=O)N[C@@H](CCC(=O)O)C(=O)N[C@@H](Cc1c[nH]c2ccccc12)C(=O)N[C@@H](CC(C)C)C(=O)N[C@@H](CCCCN)C(=O)N[C@@H](CC(N)=O)C(=O)N[C@@H](C)C(=O)NCC(=O)N1CCC[C@H]1C(=O)N[C@@H](CO)C(=O)N[C@@H](CO)C(=O)NCC(=O)N[C@@H](C)C(=O)N1CCC[C@H]1C(=O)N1CCC[C@H]1C(=O)N1CCC[C@H]1C(=O)N[C@@H](CO)C(N)=O)[C@@H](C)CC)C(=O)O [compound 95] | 9.2 | 20.6
CCCCCCCCCCCCCCCC(=O)N[C@@H](CCC(=O)NCCCC[C@H](NC(=O)[C@H](CCC(N)=O)NC(=O)[C@H](CCCCN)NC(=O)[C@H](CO)NC(=O)[C@H](CC(C)C)NC(=O)[C@H](CC(=O)O)NC(=O)[C@H](CO)NC(=O)[C@@H](NC(=O)[C@H](Cc1ccccc1)NC(=O)[C@@H](NC(=O)CNC(=O)[C@H](CCC(N)=O)NC(=O)[C@@H](CO)NC(=O)[C@@H](N)Cc1c[nH]cn1)[C@@H](C)O)[C@@H](C)O)C(=O)N[C@@H](CCC(=O)O)C(=O)N[C@@H](CO)C(=O)N[C@@H](CCCNC(=N)N)C(=O)N[C@@H](CCCNC(=N)N)C(=O)N[C@@H](C)C(=O)N[C@@H](CCC(N)=O)C(=O)N[C@@H](CC(=O)O)C(=O)N[C@@H](Cc1ccccc1)C(=O)N[C@H](C(=O)N[C@@H](CCC(=O)O)C(=O)N[C@@H](Cc1c[nH]c2ccccc12)C(=O)N[C@@H](CC(C)C)C(=O)N[C@@H](CCCCN)C(=O)N[C@@H](CC(N)=O)C(=O)N[C@H](C(=O)NCC(=O)N1CCC[C@H]1C(=O)N[C@@H](CO)C(=O)N[C@@H](CO)C(=O)NCC(=O)N[C@@H](C)C(=O)N1CCC[C@H]1C(=O)N1CCC[C@H]1C(=O)N1CCC[C@H]1C(=O)N[C@@H](CO)C(N)=O)[C@@H](C)O)[C@@H](C)CC)C(=O)O [compound 96] | 3.4 | 74.3
CCCCCCCCCCCCCCCC(=O)N[C@@H](CCC(=O)NCCCC[C@H](NC(=O)[C@H](CCC(N)=O)NC(=O)[C@H](CCCCN)NC(=O)[C@H](CO)NC(=O)[C@H](CC(C)C)NC(=O)[C@H](CC(=O)O)NC(=O)[C@H](CO)NC(=O)[C@@H](NC(=O)[C@H](Cc1ccccc1)NC(=O)[C@@H](NC(=O)CNC(=O)[C@H](CCC(N)=O)NC(=O)[C@@H](CO)NC(=O)[C@@H](N)Cc1c[nH]cn1)[C@@H](C)O)[C@@H](C)O)C(=O)N[C@@H](CC(=O)O)C(=O)N[C@@H](CO)C(=O)N[C@@H](CCCNC(=N)N)C(=O)N[C@@H](CCCNC(=N)N)C(=O)N[C@@H](C)C(=O)N[C@@H](CCC(N)=O)C(=O)N[C@@H](CC(=O)O)C(=O)N[C@@H](Cc1ccccc1)C(=O)N[C@H](C(=O)N[C@@H](CCC(=O)O)C(=O)N[C@@H](Cc1c[nH]c2ccccc12)C(=O)N[C@@H](CC(C)C)C(=O)N[C@@H](CCCCN)C(=O)N[C@@H](CC(N)=O)C(=O)NCC(=O)NCC(=O)N1CCC[C@H]1C(=O)N[C@@H](CO)C(=O)N[C@@H](CO)C(=O)NCC(=O)N[C@@H](C)C(=O)N1CCC[C@H]1C(=O)N1CCC[C@H]1C(=O)N1CCC[C@H]1C(=O)N[C@@H](CO)C(=O)NN1CCCC1)[C@@H](C)CC)C(=O)O [compound 98] | 1.4 | 9.6
CCCCCCCCCCCCCCCC(=O)N[C@@H](CCC(=O)NCCCC[C@H](NC(=O)[C@H](CCC(N)=O)NC(=O)[C@H](CCCCN)NC(=O)[C@H](CO)NC(=O)[C@H](CC(C)C)NC(=O)[C@H](CC(=O)O)NC(=O)[C@H](CO)NC(=O)[C@@H](NC(=O)[C@H](Cc1ccccc1)NC(=O)[C@@H](NC(=O)CNC(=O)[C@H](CCC(N)=O)NC(=O)[C@@H](CO)NC(=O)[C@@H](N)Cc1c[nH]cn1)[C@@H](C)O)[C@@H](C)O)C(=O)N[C@@H](CC(=O)O)C(=O)N[C@@H](CO)C(=O)N[C@@H](CCCNC(=N)N)C(=O)N[C@@H](CCCNC(=N)N)C(=O)N[C@@H](C)C(=O)N[C@@H](CCC(N)=O)C(=O)N[C@@H](CC(=O)O)C(=O)N[C@@H](Cc1ccccc1)C(=O)N[C@H](C(=O)N[C@@H](CCC(=O)O)C(=O)N[C@@H](Cc1c[nH]c2ccccc12)C(=O)N[C@@H](CC(C)C)C(=O)N[C@@H](CCCCN)C(=O)N[C@@H](CC(N)=O)C(=O)NCC(=O)NCC(=O)N1CCC[C@H]1C(=O)N[C@@H](CO)C(=O)N[C@@H](CO)C(=O)NCC(=O)N[C@@H](C)C(=O)N1CCC[C@H]1C(=O)N1CCC[C@H]1C(=O)N1CCC[C@H]1C(=O)N[C@@H](CO)C(=O)NCc1ccccc1)[C@@H](C)CC)C(=O)O [compound 99] | 2.6 | 15.9
CCCCCCCCCCCCCCCC(=O)N[C@@H](CCC(=O)NCCCC[C@H](NC(=O)[C@H](CCC(N)=O)NC(=O)[C@H](CCCCN)NC(=O)[C@H](CO)NC(=O)[C@H](CC(C)C)NC(=O)[C@H](CC(=O)O)NC(=O)[C@H](CO)NC(=O)[C@@H](NC(=O)[C@H](Cc1ccccc1)NC(=O)[C@@H](NC(=O)CNC(=O)[C@H](CCC(N)=O)NC(=O)[C@@H](CO)NC(=O)[C@@H](N)Cc1c[nH]cn1)[C@@H](C)O)[C@@H](C)O)C(=O)N[C@@H](CC(=O)O)C(=O)N[C@@H](CO)C(=O)N[C@@H](CCCNC(=N)N)C(=O)N[C@@H](CCCNC(=N)N)C(=O)N[C@@H](C)C(=O)N[C@@H](CCC(N)=O)C(=O)N[C@@H](CC(=O)O)C(=O)N[C@@H](Cc1ccccc1)C(=O)N[C@H](C(=O)N[C@@H](CCC(=O)O)C(=O)N[C@@H](Cc1c[nH]c2ccccc12)C(=O)N[C@@H](CC(C)C)C(=O)N[C@@H](CCCCN)C(=O)N[C@@H](CC(N)=O)C(=O)NCC(=O)NCC(=O)N1CCC[C@H]1C(=O)N[C@@H](CO)C(=O)N[C@@H](CO)C(=O)NCC(=O)N[C@@H](C)C(=O)N1CCC[C@H]1C(=O)N1CCC[C@H]1C(=O)N1CCC[C@H]1C(=O)N[C@@H](CO)C(=O)NC(C)(C)C)[C@@H](C)CC)C(=O)O [compound 100] | 2 | 13.5
CCCCCCCCCCCCCCCC(=O)N[C@@H](CCC(=O)NCCCC[C@H](NC(=O)[C@H](CCC(N)=O)NC(=O)[C@H](CCCCN)NC(=O)[C@H](CO)NC(=O)[C@H](CC(C)C)NC(=O)[C@H](CC(=O)O)NC(=O)[C@H](CO)NC(=O)[C@@H](NC(=O)[C@H](Cc1ccccc1)NC(=O)[C@@H](NC(=O)CNC(=O)[C@H](CCC(N)=O)NC(=O)[C@@H](CO)NC(=O)[C@@H](N)Cc1c[nH]cn1)[C@@H](C)O)[C@@H](C)O)C(=O)N[C@@H](CC(=O)O)C(=O)N[C@@H](CO)C(=O)N[C@@H](CCCNC(=N)N)C(=O)N[C@@H](CCCNC(=N)N)C(=O)N[C@@H](C)C(=O)N[C@@H](CCC(N)=O)C(=O)N[C@@H](CC(=O)O)C(=O)N[C@@H](Cc1ccccc1)C(=O)N[C@H](C(=O)N[C@@H](CCC(=O)O)C(=O)N[C@@H](Cc1c[nH]c2ccccc12)C(=O)N[C@@H](CC(C)C)C(=O)N[C@@H](CCCCN)C(=O)N[C@@H](CC(N)=O)C(=O)NCC(=O)NCC(=O)N1CCC[C@H]1C(=O)N[C@@H](CO)C(=O)N[C@@H](CO)C(=O)NCC(=O)N[C@@H](C)C(=O)N1CCC[C@H]1C(=O)N1CCC[C@H]1C(=O)N1CCC[C@H]1C(=O)N[C@@H](CO)C(=O)N(CC)CC)[C@@H](C)CC)C(=O)O [compound 101] | 1.7 | 9.8
CCCCCCCCCCCCCCCC(=O)N[C@@H](CCC(=O)NCCCC[C@H](NC(=O)[C@H](CCC(N)=O)NC(=O)[C@H](CCCCN)NC(=O)[C@H](CO)NC(=O)[C@H](CC(C)C)NC(=O)[C@H](CC(=O)O)NC(=O)[C@H](CO)NC(=O)[C@@H](NC(=O)[C@H](Cc1ccccc1)NC(=O)[C@@H](NC(=O)CNC(=O)[C@H](CCC(N)=O)NC(=O)[C@@H](CO)NC(=O)[C@@H](N)Cc1c[nH]cn1)[C@@H](C)O)[C@@H](C)O)C(=O)N[C@@H](CC(=O)O)C(=O)N[C@@H](CO)C(=O)N[C@@H](CCCNC(=N)N)C(=O)N[C@@H](CCCNC(=N)N)C(=O)N[C@@H](C)C(=O)N[C@@H](CCC(N)=O)C(=O)N[C@@H](CC(=O)O)C(=O)N[C@@H](Cc1ccccc1)C(=O)N[C@H](C(=O)N[C@@H](CCC(=O)O)C(=O)N[C@@H](Cc1c[nH]c2ccccc12)C(=O)N[C@@H](CC(C)C)C(=O)N[C@@H](CCCCN)C(=O)N[C@@H](CC(N)=O)C(=O)NCC(=O)NCC(=O)N1CCC[C@H]1C(=O)N[C@@H](CO)C(=O)N[C@@H](CO)C(=O)NCC(=O)N[C@@H](C)C(=O)N1CCC[C@H]1C(=O)N1CCC[C@H]1C(=O)N1CCC[C@H]1C(=O)N[C@@H](CO)C(=O)N1CCOCC1)[C@@H](C)CC)C(=O)O [compound 102] | 1.1 | 7.2
CCCCCCCCCCCCCCCC(=O)N[C@@H](CCC(=O)NCCCC[C@H](NC(=O)[C@H](CCC(N)=O)NC(=O)[C@H](CCCCN)NC(=O)[C@H](CO)NC(=O)[C@H](CC(C)C)NC(=O)[C@H](CC(=O)O)NC(=O)[C@H](CO)NC(=O)[C@@H](NC(=O)[C@H](Cc1ccccc1)NC(=O)[C@@H](NC(=O)CNC(=O)[C@H](CCC(N)=O)NC(=O)[C@@H](CO)NC(=O)[C@@H](N)Cc1c[nH]cn1)[C@@H](C)O)[C@@H](C)O)C(=O)N[C@@H](CC(=O)O)C(=O)N[C@@H](CO)C(=O)N[C@@H](CCCNC(=N)N)C(=O)N[C@@H](CCCNC(=N)N)C(=O)N[C@@H](C)C(=O)N[C@@H](CCC(N)=O)C(=O)N[C@@H](CC(=O)O)C(=O)N[C@@H](Cc1ccccc1)C(=O)N[C@H](C(=O)N[C@@H](CCC(=O)O)C(=O)N[C@@H](Cc1c[nH]c2ccccc12)C(=O)N[C@@H](CC(C)C)C(=O)N[C@@H](CCCCN)C(=O)N[C@@H](CC(N)=O)C(=O)NCC(=O)NCC(=O)N1CCC[C@H]1C(=O)N[C@@H](CO)C(=O)N[C@@H](CO)C(=O)NCC(=O)N[C@@H](C)C(=O)N1CCC[C@H]1C(=O)N1CCC[C@H]1C(=O)N1CCC[C@H]1C(=O)N[C@@H](CO)C(=O)NCC(F)(F)F)[C@@H](C)CC)C(=O)O [compound 103] | 1.7 | 10.1
